Assay results reported in US10710986B2, “PD-1/PD-L1 inhibitors” (Gilead Sciences, Inc., priority 2018, dated 2020).

Details: all doses, entire study

COc1nc(-c2cccc(-c3cccc(-c4cnc(CNC[C@@H]5CCC(=O)N5)c(OC)n4)c3Cl)c2Cl)cnc1CNC[C@@H]1CCC(=O)N1 [compound 139]
tolerability, effect on body weight (listed as Compound 139): well tolerated | tolerability, effect on body weight (listed as compound 139): well-tolerated

Like-named read-outs stand apart in the source and are kept apart here.
